Data reported in BindingDB's records for doi:10.1002/cbic.200400084 (Laboratorium FÜR Organische Chemie, 2004).
pIC50: −log10 of the molar value.

Target: T1, Catechol O-methyltransferase (Rattus norvegicus, UniProt P22734)
T1 sequence (P22734 whole entry): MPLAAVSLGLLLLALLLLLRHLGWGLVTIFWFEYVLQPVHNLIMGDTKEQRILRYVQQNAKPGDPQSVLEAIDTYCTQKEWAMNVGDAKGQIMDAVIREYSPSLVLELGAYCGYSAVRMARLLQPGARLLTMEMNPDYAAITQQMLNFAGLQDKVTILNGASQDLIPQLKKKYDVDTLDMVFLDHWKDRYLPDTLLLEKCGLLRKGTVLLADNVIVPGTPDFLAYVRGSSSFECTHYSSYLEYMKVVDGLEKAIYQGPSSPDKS
Experiment: Radiochemical Assay
Details: 37 °C
Experimental: The binding affinity of the inhibitors towards Catechol O-methyltransferase in the presence of Mg2+ ions were determined by using a radiochemical assay.

Row | pIC50 | Compound
1 | 7.54 | Nc1ncnc2c1ncn2[C@@H]1O[C@H](/C=C/CNC(=O)c2cc(-c3nc4ccccc4s3)cc(O)c2O)[C@@H](O)[C@H]1O [Bi-substrate Inhibitor, 1g]
2 | 5.86 | CC(C)c1cc(O)c(O)c(C(=O)NC/C=C/[C@H]2O[C@@H](n3cnc4c(N)ncnc43)[C@H](O)C2O)c1 (some centres not stated) [Bi-substrate Inhibitor, 1r]
